Reference: patent US6783973B1, “Mammalian catecholamine receptor genes and uses” (Oregon Health & Science University, priority 2000, dated 2004)

Tests used:
[1] = test system: human catecholamine receptor; experiment: MAP kinase pathway stimulation, Elk-gal/luciferase reporter assay in HEK 293 cells transfected with H2-3pcDNA3.1
[2] = test system: HEK 293 cells transfected with pcDNA3.1 without catecholamine receptor sequences; experiment: MAP kinase pathway stimulation, Elk-gal/luciferase reporter assay in control HEK 293 cells transfected with pcDNA3.1

For `CCCN1CCC[C@@H]2Cc3n[nH]cc3C[C@H]21` [Quinpirole], the “fold stimulation of luciferase (MAP kinase activation), H2-3 pcDNA3.1” value [1] was 2.14 fold and the “fold stimulation of luciferase (MAP kinase activation), pcDNA3.1” value [2] was 0.6 fold.
